# Laboratory results published in patent publication US9440982B2 (Eolas Therapeutics, Inc., priority 2012, dated 2016).
# Sequences of proteins named here, by UniProt entry; tags and fusion partners are left off.
# UniProt O43614, whole entry: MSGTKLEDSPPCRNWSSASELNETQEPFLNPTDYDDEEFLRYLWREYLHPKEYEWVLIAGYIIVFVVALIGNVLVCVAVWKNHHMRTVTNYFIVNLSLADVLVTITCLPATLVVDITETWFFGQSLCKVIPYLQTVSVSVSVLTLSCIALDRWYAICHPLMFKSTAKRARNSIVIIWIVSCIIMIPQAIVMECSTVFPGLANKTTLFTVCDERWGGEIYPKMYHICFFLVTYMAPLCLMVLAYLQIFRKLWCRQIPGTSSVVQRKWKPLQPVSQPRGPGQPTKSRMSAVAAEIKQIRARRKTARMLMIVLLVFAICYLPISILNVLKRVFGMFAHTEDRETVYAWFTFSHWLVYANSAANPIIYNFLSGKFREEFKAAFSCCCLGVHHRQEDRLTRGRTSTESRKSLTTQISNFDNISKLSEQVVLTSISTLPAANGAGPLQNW
# Molecular target: T1, OX2 (Homo sapiens, UniProt O43614)
# T1 construct: expressed in transfected cells; host or cells: CHO (CHO-OX2, kept under selection antibiotic)
# Assay: Orexin receptor cell-based functional assay, [Ca2+]i by FLIPR, CHO-OX2 cells
# Conditions: CHO-OX2 cells, [Ca2+]i by FLIPR, antagonist dose-range 0.1 nM-10 μM, EC90 of OXA; read-out: OX2
row,IC50 [nM],SMILES
1,350,"Cc1ccc(-c2ncccn2)c(C(=O)N2CCC[C@@H](C)[C@H]2CNc2nc3cc(Cl)ccc3o2)c1 [Example A205, ((2S,3R)-2-(((5-Chlorobenzo[d]oxazol-2-yl)amino)methyl)-3-methylpiperidin-1-yl)(5-methyl-2-(pyrimidin-2-yl)phenyl)methanone]"
2,140,"Cc1ccc(-c2ncccn2)c(C(=O)N2CCC[C@@H](C)[C@H]2CNc2nc3cc(F)ccc3o2)c1 [Example A206, ((2S,3R)-2-(((5-Fluorobenzo[d]oxazol-2-yl)amino)methyl)-3-methylpiperidin-1-yl)(5-methyl-2-(pyrimidin-2-yl)phenyl)methanone]"
3,> 5000,"C[C@@H]1CCCN(C(=O)c2cc(F)ccc2-n2nccn2)[C@@H]1CNc1ncc(C(F)(F)F)cn1 [Example A207, (5-Fluoro-2-(2H-1,2,3-triazol-2-yl)phenyl)((2S,3R)-3-methyl-2-(((5-(trifluoromethyl)pyrimidin-2-yl)amino)methyl)piperidin-1-yl)methanone]"
4,> 5000,"C[C@@H]1CCCN(C(=O)c2cc(F)ccc2-n2nccn2)[C@@H]1CNc1ccc(C(F)(F)F)nn1 [Example A208, (5-Fluoro-2-(2H-1,2,3-triazol-2-yl)phenyl)((2S,3R)-3-methyl-2-(((6-(trifluoromethyl)pyridazin-3-yl)amino)methyl)piperidin-1-yl)methanone]"
5,> 5000,"C[C@@H]1CCCN(C(=O)c2cc(F)ccc2-n2nccn2)[C@@H]1CNc1ccc(Cl)cn1 [Example A209, ((2S,3R)-2-(((5-Chloropyridin-2-yl)amino)methyl)-3-methylpiperidin-1-yl)(5-fluoro-2-(2H-1,2,3-triazol-2-yl)phenyl)methanone]"
6,> 5000,"Cc1ccc(-n2nccn2)c(C(=O)N2CCC(F)(F)C[C@H]2CNc2ccc(Cl)cn2)c1 [Example A210, (S)-(2-(((5-Chloropyridin-2-yl)amino)methyl)-4,4-difluoropiperidin-1-yl)(5-methyl-2-(2H-1,2,3-triazol-2-yl)phenyl)methanone]"

# Further lines, the compound ahead of its results:
row,SMILES,IC50 [nM]
1,"Cc1ccc(-c2ccccn2)c(C(=O)N2CCC[C@@H](C)[C@H]2CNc2nc3cc(Cl)ccc3o2)n1 [Example A199, ((2S,3R)-2-(((5-Chlorobenzo[d]oxazol-2-yl)amino)methyl)-3-methylpiperidin-1-yl)(6′-methyl-[2,3′-bipyridin]-2′-yl)methanone]",2600
2,"C[C@@H]1CCCN(C(=O)c2cc(Cl)ccc2-c2ncccn2)[C@@H]1CNc1ccc(C(F)(F)F)nn1 [Example A200, (5-Chloro-2-(pyrimidin-2-yl)phenyl)((2S,3R)-3-methyl-2-(((6-(trifluoromethyl)pyridazin-3-yl)amino)methyl)piperidin-1-yl)methanone]",> 5000
3,"C[C@@H]1CCCN(C(=O)c2cc(Cl)ccc2-c2ncccn2)[C@@H]1CNc1ncc(C(F)(F)F)cn1 [Example A201, (5-Chloro-2-(pyrimidin-2-yl)phenyl)((2S,3R)-3-methyl-2-(((5-(trifluoromethyl)pyrimidin-2-yl)amino)methyl)piperidin-1-yl)methanone]",2800
4,"C[C@@H]1CCCN(C(=O)c2cc(Cl)ccc2-c2ncccn2)[C@@H]1CNc1ncc(Cl)cn1 [Example A202, (5-Chloro-2-(pyrimidin-2-yl)phenyl)((2S,3R)-2-(((5-chloropyrimidin-2-yl)amino)methyl)-3-methylpiperidin-1-yl)methanone]",> 5000
5,"C[C@@H]1CCCN(C(=O)c2cc(Cl)ccc2-c2ncccn2)[C@@H]1CNc1ccc(Cl)cn1 [Example A203, (5-Chloro-2-(pyrimidin-2-yl)phenyl)((2S,3R)-2-(((5-chloropyridin-2-yl)amino)methyl)-3-methylpiperidin-1-yl)methanone]",> 5000
6,"Cc1ccc(-c2ncccn2)c(C(=O)N2CCC[C@@H](C)[C@H]2CNc2nc3ccccc3o2)c1 [Example A204, ((2S,3R)-2-((Benzo[d]oxazol-2-ylamino)methyl)-3-methylpiperidin-1-yl)(5-methyl-2-(pyrimidin-2-yl)phenyl)methanone]",260
